Reference: patent US4956461A, “Desamino-aminopterin and -methotrexate” (priority 1989, dated 1990)

How the values were obtained:
[1] = system: DHFR, threonine residue replaced by valine; settings: threonine to valine mutant; cited from earlier work
[2] = system: carboxypeptidase G1; assay: Glutamate hydrolysis by carboxypeptidase G1 (HPLC); settings: identical conditions
[3] = system: WI-L2 cells; assay: Growth inhibition of cultured human WI-L2 tumor cells; settings: WIL2, read-out: Cells IC50, WI-L2
[4] = system: L1210 cells; assay: Growth inhibition of cultured murine L1210 tumor cells; settings: Mus musculus, L1210, read-out: Cells IC50, L1210

CN(Cc1cnc2nc(N)nc(N)c2n1)c1ccc(C(=O)N[C@@H](CCC(=O)O)C(=O)O)cc1 [MTX, methotrexate]
free energy difference [1]: ~8.4 kJ/mol
cleavage by carboxypeptidase G1 [2]: cleaved to 4-amino-4-deoxy-N^10 -methylpteroic acid

Cc1nc(N)c2nc(CN(C)c3ccc(C(=O)N[C@@H](CCC(=O)O)C(=O)O)cc3)cnc2n1 [Example 4]
IC50 [3]: 0.33 µM
IC50 [4]: 0.22 µM
